From ChEMBL document CHEMBL4261537, “Synthesis and pharmacological evaluation of multi-functional homoisoflavonoid derivatives as potent inhibitors of monoamine oxidase B and cholinesterase for the treatment of Alzheimer's disease” (Medchemcomm, 2017)

Sequences of proteins named here, by UniProt entry; tags and fusion partners are left off.
UniProt P21397, whole entry: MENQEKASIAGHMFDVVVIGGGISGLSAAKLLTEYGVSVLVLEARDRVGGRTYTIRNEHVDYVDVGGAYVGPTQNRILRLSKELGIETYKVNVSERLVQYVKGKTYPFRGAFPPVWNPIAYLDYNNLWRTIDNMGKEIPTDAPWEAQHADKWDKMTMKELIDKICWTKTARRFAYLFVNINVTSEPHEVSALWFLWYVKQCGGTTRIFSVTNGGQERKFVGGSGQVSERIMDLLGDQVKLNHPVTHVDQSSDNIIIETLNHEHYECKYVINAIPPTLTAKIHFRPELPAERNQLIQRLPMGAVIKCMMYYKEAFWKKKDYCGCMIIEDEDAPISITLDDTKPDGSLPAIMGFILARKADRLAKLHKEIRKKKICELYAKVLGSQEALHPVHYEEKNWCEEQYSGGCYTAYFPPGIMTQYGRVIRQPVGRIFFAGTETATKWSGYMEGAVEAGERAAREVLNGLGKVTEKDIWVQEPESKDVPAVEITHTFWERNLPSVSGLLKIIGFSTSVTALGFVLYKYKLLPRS

Biological target: Amine oxidase [flavin-containing] A (Homo sapiens, UniProt P21397)
Test: Inhibition of recombinant human MAO-A assessed as reduction in H2O2 production using p-tyramine as substrate preincubated for 15 mins followed by substrate addition by Amplex red reagent based fluorescence assay
Outline: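 Human MAO-A, adjusted to give the same control reaction velocity, preincubated 15 min at 37°C with compound in sodium phosphate buffer; 200 μM Amplex Red reagent with 1 U/mL horseradish peroxidase and 1 mM p-tyramine then added. Resorufin fluorescence (ex 545, em 590 nm) read at 37°C, enzyme-free background subtracted; triplicate.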

In the case of `C#CCN(C)Cc1ccccc1` [PARGYLINE], the IC50 is reported as 1.1 µM.
